Data as given in PubChem BioAssay AID2540 (Sanford-Burnham Center for Chemical Genomics, 2010).
The entries are a selection whose mix differs from that of the whole data set. The source made the active and inactive calls. No stated cut-off is given here; in the data, active means inhibition above about 50%; inactive means the rest.

By UniProt entry, the sequences of proteins in these tests, tags left out. Where a name states a change or a piece, a line headed by the entry shows the natural chain unless it says otherwise.
UniProt Q96LD8: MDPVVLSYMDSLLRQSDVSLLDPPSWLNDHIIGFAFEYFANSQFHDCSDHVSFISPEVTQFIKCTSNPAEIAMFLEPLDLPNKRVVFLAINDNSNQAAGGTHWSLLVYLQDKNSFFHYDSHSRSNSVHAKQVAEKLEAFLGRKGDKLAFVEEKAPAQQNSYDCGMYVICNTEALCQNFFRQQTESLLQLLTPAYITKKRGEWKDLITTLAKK

The compounds below were run against Sentrin-specific protease 8 (Homo sapiens) (UniProt Q96LD8) (assay: blockers of human SENP8 peptidase activity – biochemical, luminescence, primary screen (AID 2540)). Conditions: purified SENP8, Z-RLRGG-aminoluciferin cleavage, at 10 µM, stronger effect = higher value.

SMILES	inhibition
CC(=O)N1C2C3N(C(C)=O)C1C1N(C(C)=O)C(C(N1C(C)=O)N3C(C)=O)N2C(C)=O	inactive: -3.93%
Cc1ccc(NP(=O)(Oc2ccccc2)Oc2ccccc2)nc1	inactive: -9.06%
CCc1nc2c(n1)c1c(non1O)c1c2no[n+]1[O-]	inactive: 1.78%
O=[N+]([O-])c1cc([N+](=O)[O-])c(CCNc2ccccc2)c([N+](=O)[O-])c1	inactive: 8.67%
COc1ccc(C2=NCC(CBr)S2)cc1 (centres undefined)	inactive: 0.215%
O=[N+]([O-])c1cccc(NC2=NCC(CBr)S2)c1 (centres undefined)	inactive: 1.65%
CC(C)(C)C(=O)NC(Sc1ccncn1)C(Cl)(Cl)Cl (centres undefined)	inactive: -8.42%
O=[N+]([O-])c1ncn(CCn2ncnc2[N+](=O)[O-])n1	inactive: -6.48%
O=C(Nc1cc([As](=O)(O)O)ccc1O)c1ccccc1	inactive: -7.11%
C(Cc1nn[nH]n1)Cc1nn[nH]n1	inactive: 3.47%
Nc1ccc([As](=O)(O)c2ccc([N+](=O)[O-])cc2)cc1	inactive: -3.93%
O=C(OC1CN2CCC1CC2)c1cccc(Cl)c1 (centres undefined)	inactive: -1.44%
O=[N+]([O-])c1ncn(CCn2cnc([N+](=O)[O-])n2)n1	inactive: -0.183%
O=[As](O)(c1ccccc1)c1ccc(O)cc1	inactive: -3.8%
O=P(Nc1nc2ccccc2s1)(c1ccccc1)c1ccccc1	inactive: 0.934%
C[C@H]1OP(=O)(Oc2ccccc2)[C@H](O)[C@H](O)[C@H]1N=[N+]=[N-] (some centres undefined)	inactive: -9.69%
O=P(Nc1ccccn1)(c1ccc(Br)cc1)c1ccc(Br)cc1	inactive: -1.15%
CN(C)C1(CNC(=O)c2ccc(Cl)c(S(N)(=O)=O)c2)CCCCC1	inactive: -1.83%
c1nnnn1CCn1cnnn1	inactive: -8.78%
CC(C)C(=O)NC(Sc1ccccc1)C(Cl)(Cl)Cl (centres undefined)	inactive: -14.2%

SMILES	inhibition
O=P(Nc1nccs1)(c1ccccc1)c1ccccc1	inactive: 4.41%
CC(=O)Nc1ccc([As](=O)(O)O)c(O)c1	inactive: -2.03%
CC(=O)Nc1ccc(Oc2c([N+](=O)[O-])cc([N+](=O)[O-])cc2[N+](=O)[O-])cc1	inactive: -4.79%
CC(=O)c1ccc(N2CC2c2ccncc2)cc1 (centres undefined)	inactive: -4.74%
Cc1ccccc1CN(C)C(=O)COC(=O)C(O)(c1ccccc1)c1ccccc1	inactive: -9.89%
C[C@H]1OP(=O)(Oc2ccccc2)C[C@@H]2O[C@@H]21 (some centres undefined)	inactive: 0.501%
C[C@@H]1C=CCP(=O)(Oc2ccccc2)O1 (some centres undefined)	inactive: -1.82%
CC(C)(C)C(=O)NC(Sc1ccccc1)C(Cl)(Cl)Cl (centres undefined)	inactive: -0.875%
O=P1(Nc2nc3ccc(Cl)cc3s2)COc2ccccc2O1 (centres undefined)	inactive: -10.1%
CCOc1ccc(C2=NCC(CBr)S2)cc1 (centres undefined)	inactive: 0.574%
CC(NC(=O)COC(=O)C(O)(c1ccccc1)c1ccccc1)c1ccccc1 (centres undefined)	inactive: -4.07%
Cc1ccccc1OP(=O)(Nc1ccccn1)Oc1ccccc1C	inactive: -0.625%
CN(C)C(=O)Oc1noc2ccccc12	inactive: 8.74%
COC(=O)c1cc2c(s1)N=C(c1ccccc1)N(C)P2(=O)N1CCOCC1 (centres undefined)	inactive: -0.61%
CC(=O)NC(SC(=S)N(CC(C)C)CC(C)C)C(Cl)(Cl)Cl (centres undefined)	inactive: -1.11%
Cc1ccc(OP(=O)(Nc2ccccn2)Oc2ccc(C)cc2)cc1	inactive: 2.36%
O=C(OC1CN2CCC1CC2)c1ccccc1 (centres undefined)	inactive: -7.09%
CCC(=O)N1C2C3N(C(=O)CC)C1C1N(C(=O)CC)C(C(N1C(=O)CC)N3C(=O)CC)N2C(=O)CC	inactive: -1.09%
CCNC(=S)/N=C(\N)N[N+](=O)[O-]	inactive: 0.007%
O=C(NC1CCS(=O)(=O)C1)NP(=S)(Oc1ccccc1)Oc1ccccc1 (centres undefined)	inactive: 6.28%

SMILES	inhibition
c1ccc(-c2nn[nH]n2)c(-c2nn[nH]n2)c1	inactive: -16.1%
Cc1ccc(NP(=O)(Oc2cccc(C)c2)Oc2cccc(C)c2)nc1	inactive: -9.19%
CCOC(=O)NC(Sc1ccccc1)C(Cl)(Cl)Cl (centres undefined)	inactive: 5.48%
O=[N+]([O-])c1ccc2c(c1)nnn2O	inactive: 3.56%
CN(C)C(=O)c1cc([N+](=O)[O-])cc2c1-c1c(cc([N+](=O)[O-])cc1[N+](=O)[O-])C2=O	inactive: -8.78%
CN(C(=O)Cc1ccc(Cl)c(Cl)c1)[C@H]1CC[C@@]2(CCCO2)C[C@@H]1N1CCCC1	inactive: 1.07%
N#CCCN(C(=O)COC(=O)C(O)(c1ccccc1)c1ccccc1)c1ccc(F)cc1	inactive: -10.7%
CCOP1(=S)c2c(C)nn(CCC#N)c2N=C(c2ccc(F)cc2)N1C (centres undefined)	inactive: 4.24%
CN(C(=O)Cc1ccccc1)[C@@H]1CC[C@]2(CCCO2)C[C@H]1N1CCCC1	inactive: 5.88%
NC(=O)Nc1ccc([As](=O)(O)O)cc1	inactive: 1.7%
Nc1ccccc1[As](=O)(O)c1ccccc1	inactive: -3.3%
O=C(O)COc1ccc([As](=O)(O)O)cc1[N+](=O)[O-]	inactive: -8.09%
CS(=O)(=O)c1cc([N+](=O)[O-])c2no[n+]([O-])c2c1	inactive: -2.62%
CCOP1(=S)c2c(C)nn(CCC#N)c2N=C(c2ccccc2F)N1C (centres undefined)	inactive: -4.1%
O=P(Nc1nccs1)(Oc1ccccc1)Oc1ccccc1	inactive: -4.16%
O=P(Nc1nccs1)(c1ccccc1)c1nc2ccccc2s1 (centres undefined)	inactive: -0.174%
COc1cc(C2NCCC3(OCCO3)C2(C)C)cc(OC)c1OC (centres undefined)	inactive: -5.22%
CCOP(=O)(Nc1cccc2ccccc12)OCC	inactive: -4.38%
CCCOP(=S)(Nc1nc(N)cc(=O)[nH]1)OCCC	inactive: -6.55%
